Source: patent publication US20190350879A1, “METHOD OF TREATING PAIN USING RACEMIC MIXTURE OF S-KETAMINE AND R-KETAMINE” (priority 2017, published 2019)

Test: Series of studies of intranasal racemic ketamine liquid formulation for acute and/or breakthrough pain
Settings: liquid formulation at 30 mg to 50 mg, Intranasal (IN) route

In the case of `CNC1(c2ccccc2Cl)CCCCC1=O` (racemic) [racemic ketamine, 2-(2-chlorophenyl)-2-(methylamino)-cyclohexanone], the “ability to stop acute and/or breakthrough pain” value is reported as “has shown the ability of IN racemic ketamine to stop acute and/or breakthrough pain”.
